Publication PMC3226828 (Journal of medicinal chemistry, 2011)

Columns and labels:
[1] = test system: mGlu1,2,3; settings: 10 µM compound with full glutamate CRC; Inactive = no left-shift
[2] = test system: mGlu1–3,5,6–8; settings: against other mGlu subtypes (mGlu1–3,5,6–8)

| Compound | mGlu Selectivity mGlu1,2,3 [1] | mGlu selectivity [2] | mGlu selectivity ([2]; listed as C00004) |
| --- | --- | --- | --- |
| O=C(Nc1ccc(N2C(=O)CC(c3ccccc3)C2=O)c(Cl)c1)c1ccccn1 (stereo not drawn) [15k, N-(3-Chloro-4-(2,5-dioxo-3-phenylpyrrolidin-1-yl)phenyl)picolinamide] | Inactive ^b |  |  |
| O=C(Nc1ccc(N2S(=O)(=O)c3ccccc3S2(=O)=O)cc1)c1ccccn1 [8d, N-(4-(1,1,3,3-Tetraoxidobenzo[d][1,3,2]dithiazol-2-yl)phenyl)picolinamide] |  | displayed selectivity | selective |

Read-outs that look alike come from different tables or passages of the source.
